Values quoted from earlier work in patent US11534589B2, “Iontophoretic microneedle device” (LTS LOHMANN THERAPIE-SYSTEME AG, priority 2017, dated 2022).

Conditions: PMVE/Ma microneedles with iontophoresis compared to microneedle or iontophoresis alone

For bovine insulin, the “Delivery through porcine skin” value is listed as “increased delivery”.
